Reference: ChEMBL document CHEMBL3352533, “Multi-dimensional target profiling of N,4-diaryl-1,3-thiazole-2-amines as potent inhibitors of eicosanoid metabolism” (Eur J Med Chem, 2014)

Protein sequences, listed by entry. Tags and fused reporters are not part of them.
UniProt P23219, whole entry: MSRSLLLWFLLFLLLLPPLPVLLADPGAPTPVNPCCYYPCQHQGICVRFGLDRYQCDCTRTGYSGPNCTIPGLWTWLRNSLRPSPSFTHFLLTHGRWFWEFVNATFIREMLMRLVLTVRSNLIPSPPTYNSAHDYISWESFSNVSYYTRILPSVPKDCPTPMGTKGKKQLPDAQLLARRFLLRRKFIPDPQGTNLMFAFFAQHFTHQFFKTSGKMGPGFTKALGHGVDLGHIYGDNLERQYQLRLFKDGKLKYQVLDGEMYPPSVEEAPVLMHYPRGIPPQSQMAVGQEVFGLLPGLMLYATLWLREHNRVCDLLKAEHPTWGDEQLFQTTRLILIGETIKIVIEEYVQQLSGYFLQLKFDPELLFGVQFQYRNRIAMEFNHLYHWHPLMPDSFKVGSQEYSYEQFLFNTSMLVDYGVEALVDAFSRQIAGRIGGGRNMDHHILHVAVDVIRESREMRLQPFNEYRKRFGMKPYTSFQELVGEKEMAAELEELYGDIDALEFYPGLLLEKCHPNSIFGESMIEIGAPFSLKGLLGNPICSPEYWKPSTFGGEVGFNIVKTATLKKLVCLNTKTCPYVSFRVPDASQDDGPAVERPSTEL

What was measured:
[1] = biological target: T1, Polyunsaturated fatty acid lipoxygenase ALOX12 (Homo sapiens) (UniProt P18054); assay: Inhibition of 12-LO-mediated 12-HPETE formation in human platelets using arachidonic acid as substrate assessed as residual activity at 50 uM preincubated for 15 mins before substrate addition measured after 10 mins
T1 sequence (whole entry): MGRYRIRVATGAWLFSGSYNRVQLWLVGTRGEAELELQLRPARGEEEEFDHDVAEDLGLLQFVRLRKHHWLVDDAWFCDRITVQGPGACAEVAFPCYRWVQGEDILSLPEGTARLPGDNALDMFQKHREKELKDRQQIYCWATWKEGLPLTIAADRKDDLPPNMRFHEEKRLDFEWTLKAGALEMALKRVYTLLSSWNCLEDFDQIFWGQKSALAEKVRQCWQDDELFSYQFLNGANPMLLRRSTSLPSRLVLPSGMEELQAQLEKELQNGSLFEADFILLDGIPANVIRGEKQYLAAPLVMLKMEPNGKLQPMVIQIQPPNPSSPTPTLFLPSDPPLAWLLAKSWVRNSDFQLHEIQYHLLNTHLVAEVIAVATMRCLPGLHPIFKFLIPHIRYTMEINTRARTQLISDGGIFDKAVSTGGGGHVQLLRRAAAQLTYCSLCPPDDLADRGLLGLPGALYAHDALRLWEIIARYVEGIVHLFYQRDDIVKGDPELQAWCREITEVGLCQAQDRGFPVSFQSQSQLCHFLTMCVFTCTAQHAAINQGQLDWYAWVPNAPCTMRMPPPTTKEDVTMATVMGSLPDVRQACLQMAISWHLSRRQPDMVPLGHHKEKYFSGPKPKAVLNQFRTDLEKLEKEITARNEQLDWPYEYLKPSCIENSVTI
Outline: (§1)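 Freshly isolated human platelets (10^8 in 1 ml PBS pH 7.4 with 1 mg/ml glucose and 1 mM CaCl2) preincubated with compound or DMSO 15 min at 37 °C, then 10 µM AA added; 10 min at 37 °C, stopped with ice-cold methanol. HPLC: 12-H(P)ETE for 12-LO, 12-HHT for COX-1; percent of DMSO control, n ≥ 3, mean ± S.E.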

[2] = biological target: Prostaglandin G/H synthase 1 (Homo sapiens) (UniProt P23219); assay: Inhibition of COX1 in human platelets using arachidonic acid as substrate assessed as residual activity at 50 uM preincubated for 15 mins before substrate addition measured after 10 mins; outline: as §1
[3] = biological target: T2, Polyunsaturated fatty acid lipoxygenase ALOX15 (Homo sapiens) (UniProt P16050); assay: Inhibition of 15-LO1-mediated 15-HPETE formation in human eosinophil using arachidonic acid as substrate assessed as residual activity at 50 uM preincubated for 15 mins before substrate addition measured after 10 mins
T2 sequence (whole entry): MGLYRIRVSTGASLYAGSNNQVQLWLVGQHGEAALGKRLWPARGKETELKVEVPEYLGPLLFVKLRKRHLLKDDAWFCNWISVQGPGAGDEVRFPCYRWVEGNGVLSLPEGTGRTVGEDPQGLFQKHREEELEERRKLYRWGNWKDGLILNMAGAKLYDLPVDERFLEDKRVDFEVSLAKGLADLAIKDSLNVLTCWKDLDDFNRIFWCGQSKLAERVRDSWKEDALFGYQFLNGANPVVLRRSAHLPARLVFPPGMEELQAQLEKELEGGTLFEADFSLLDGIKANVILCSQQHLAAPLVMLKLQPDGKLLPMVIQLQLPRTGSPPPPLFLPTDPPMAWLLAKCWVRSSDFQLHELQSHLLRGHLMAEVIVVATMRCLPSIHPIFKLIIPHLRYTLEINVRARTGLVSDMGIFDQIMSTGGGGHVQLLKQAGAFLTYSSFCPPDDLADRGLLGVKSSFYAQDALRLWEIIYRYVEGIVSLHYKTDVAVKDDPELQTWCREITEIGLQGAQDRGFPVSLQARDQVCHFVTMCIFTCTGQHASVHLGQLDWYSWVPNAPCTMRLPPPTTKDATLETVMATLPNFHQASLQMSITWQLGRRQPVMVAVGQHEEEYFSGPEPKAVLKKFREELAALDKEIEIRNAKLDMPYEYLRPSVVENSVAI
Outline: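 Freshly isolated human PMNL (5 × 10^6/ml PBS-glucose, 1 mM CaCl2), with 15-LO1 from contaminating eosinophils, preincubated with compound 15 min at 37 °C; stimulated with 2.5 µM A23187 plus 20 µM AA for 10 min at 37 °C, methanol stop. 15-H(P)ETE peak quantified by HPLC as percent of DMSO control; n ≥ 3, mean ± S.E.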

Activity [1]: 56.7% | Activity [2]: 26.3% | Activity [3]: > 70%
SMILES: Oc1ccc(Nc2nc(-c3ccc(F)cc3)cs2)cc1
